According to PubChem BioAssay AID1347075 (National Center for Advancing Translational Sciences (NCATS), 2019):
The list shows a part of the results, in another mix than the full data. Records with an inconclusive call do not appear. The source made the active and inactive calls. Calls follow the shape of the dose curve; as a rule, active = well fitted cell-killing curve with a large enough effect; inconclusive = small, poorly fitted or top-dose-only effect, or effect the other way; inactive = flat fitted curve, though single readings scatter.

Test: qHTS assay for MDR1-selective chemotherapeutics: Primary screen using the parental adenocarcinoma cell KB-3-1; also: nearly all actives have a fitted effect of over 60% in size
Settings: KB-3-1 viability, CellTiter-Glo ATP luminescence, 72 h; at 46.1 µM (top of the series)
Source text: A prime difficulty in effectively treating cancer is the development of cellular resistance to multiple structurally unrelated anticancer drugs, a phenomenon known as multidrug resistance (MDR). […] Numerous strategies to overcome P-gp-mediated MDR have been explored, including the design of drugs that evade recognition and efflux, and development of inhibitors to block efflux and restore drug accumulation. […] An alternative approach is to exploit resistance by identifying drugs that target MDR cells over the non-resistant parental cells from which they were selected. […]
Our goal is to identify compounds that selectively kill P-gp-expressing MDR cells. […] This assay will be utilized to conduct a quantitative high-throughput screen (qHTS) in collaboration with the NIH Chemical Genomics Center to identify selective agents, and probe hits arising from the screen will be validated using secondary assays and characterized through a well-established follow-up research program. […]
Briefly, 5 microL of media containing either KB-3-1 cells (columns 1-2, 4-48) are dispensed into Greiner white, treated solid-bottom 1536-well assay plates (media-only control is added to column 3). […] CellTiter-Glo (2.5 µL/well) is then added, and the plates are read in a ViewLux reader (Perkin-Elmer, clear luminescence filter, 1 second exposure, 1x binning) following a 10 minute incubation. […]
% is scaled to controls: 0 for no effect and ±100 for the full control effect.

| Structure (SMILES) | activity change, negative = cytotoxic |
| --- | --- |
| CCC(=O)N(c1ccccc1)C1(COC)CCN(CCc2cccs2)CC1 | inactive: -0.0491% |
| CCC(=O)N(c1ccccc1)C1(COC)CCN(CCn2nnn(CC)c2=O)CC1 | inactive: 0% |
